Test results taken from paper PMC4769084, “Aminoglycoside binding and catalysis specificity of aminoglycoside 2″-phosphotransferase IVa: A thermodynamic, structural and kinetic study” (Biochimica et Biophysica Acta, 2016).

Chains of the proteins cited; added tags and fusions are not shown.
UniProt O68183, entry or part of it: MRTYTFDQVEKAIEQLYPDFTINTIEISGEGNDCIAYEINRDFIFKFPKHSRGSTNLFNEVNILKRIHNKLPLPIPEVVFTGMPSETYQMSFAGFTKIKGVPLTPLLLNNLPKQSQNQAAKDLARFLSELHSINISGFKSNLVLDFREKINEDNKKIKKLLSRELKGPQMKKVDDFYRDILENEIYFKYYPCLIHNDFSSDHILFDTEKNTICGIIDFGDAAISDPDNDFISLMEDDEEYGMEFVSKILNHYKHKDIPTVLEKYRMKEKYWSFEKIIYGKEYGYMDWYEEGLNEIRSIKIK

Target: APH(2″)-IVa (Enterococcus casseliflavus, UniProt O68183)
Assay: Isothermal titration calorimetry of aminoglycoside binding
Conditions: ITC
Experimental: The enzyme was extensively dialyzed against buffer containing 50 mM Tris–HCl at pH 7.5, 40 mM KCl, 1 mM MgCl2 and ligand solutions were prepared at 5 mM in the final dialysate with readjusting pH to 7.5. The enzyme was used at a final concentration of 150 μM. ITC experiments were carried out at 25 °C in a VP-ITC calorimeter (MicroCal, GE Healthcare). Titrations consisted of 40 injections of 5 μL of ligand every 300 s. The cell stirring speed was 300 rpm. To obtain reliable dissociation constants, the c-value, a unitless parameter obtained by the multiplication of the association constant and the total concentration of ligand binding sites, was kept between 1.8 and 100 for all titrations. Control runs were performed by titrating ligands to buffer, and the resulting background signal was subtracted from the corresponding experimental data. Experiments were carried out at 1 mM free Mg^2 +.
Binding and thermodynamic parameters Ka (association constant), ΔH (enthalpy change) and stoichiometry were obtained by nonlinear least-squares fitting of experimental data using a single-site binding model of the Origin software package (version 5.0) provided with the instrument. The free energy of binding (ΔG) and entropy change at 25 °C (ΔS) were obtained using the following equations:(1) ΔG=–RTlnKa (2) ΔG=ΔH–TΔS
The experiments were performed in triplicate (except with G418 and kanamycin B, in duplicate) and the error values given in the tables are standard deviations.

Work on Kanamycin A yielded a Kd (25 °C, pH 7.5, 1 mM free Mg2+, absence of nucleotide, calculated from ITC-derived Ka, mean ± SD) of 79.9 ± 6.2 µM, a Kd (25 °C, pH 7.5, 1 mM free Mg2+, absence of nucleotide, calculated from ITC-derived Ka, mean ± SD, listed as kanamycin A) of 80 ± 6 µM and a Kd (in the presence of 870 μM MgADP) of 87 ± 8 µM. The Kd (in the presence of 1 mM MgAMP-PNP) was 103 ± 12 µM.
